Test results reported in US20050019345A1.

Legend:
[1] = target: human collagen type I (human) (UniProt P02452); assay: enzyme-linked binding assay (ELISA format), HRPO-coupled protein on immobilized matrix protein
human laminin (human) = assay: as above
BSA (bovine) = BSA (bovine) (UniProt P02769); assay: enzyme-linked binding assay (ELISA format), HRPO-coupled protein on immobilized BSA
[2] = target: human fibronectin (human) (UniProt P02751); assay: enzyme-linked binding assay (ELISA format), HRPO-coupled protein on immobilized matrix protein

OD492 [1] | OD492 (human laminin (human)) | OD492 (BSA (bovine)) | OD492 [2] | Substance
0.104 OD492 | 0.06 OD492 | 0.033 OD492 | – | recombinant purified maltose-binding protein, coupled to horseradish peroxidase (from UniProt P0AEX9 27-392)
– | – | – | 0.042 OD492 | recombinant purified maltose-binding protein, coupled to horseradish peroxidase (from UniProt P0AEX9 27-392) (other; other documents disagree on this pair)
